Data reported in the OPERA property sets (Mansouri et al. 2018).
Values after ≈ are worked out from the molar mass of the structure shown.

Conditions: experimental values compiled from the literature

Row | Structure (SMILES) | solubility [mM]
1 | O=[N+]([O-])c1cc([N+](=O)[O-])c(O)c([N+](=O)[O-])c1 | 55.4 (≈ 12.7 mg/mL)
2 | O=[N+]([O-])N1CN([N+](=O)[O-])CN([N+](=O)[O-])C1 | 0.269 (≈ 0.0597 mg/mL)
3 | CC(O)C(C)(C)C (stereo not given) | 238 (≈ 24.3 mg/mL)
4 | O=C(O)c1c([N+](=O)[O-])cc([N+](=O)[O-])cc1[N+](=O)[O-] | 79.9 (≈ 20.5 mg/mL)
5 | CN(c1c([N+](=O)[O-])cc([N+](=O)[O-])cc1[N+](=O)[O-])[N+](=O)[O-] | 0.258 (≈ 0.074 mg/mL)
